Source: patent US20140024677A1, “METHODS FOR INDUCING MITOCHONDRIAL BIOGENESIS” (MUSC Foundation For Research Development, priority 2012, published 2014)

Experiments:
[1] = test system: primary renal proximal tubule cells (RPTC); details: for Average uncoupled OCR ratio: 5 μM, fold change in FCCP-OCR relative to DMSO controls, LOPAC compounds
[2] = test system: primary renal proximal tubule cells (RPTC); details: cited from earlier work

Compound: NCCc1ccc(O)c(O)c1 [dopamine]
- Change in FCCP-OCR relative to vehicle control ([1]; RPTC, 24 hr, formoterol 30 nM, isoproterenol 10, 100, 1000 nM, BRL 37344 100, 300, 1000 nM, catecholamines 30 and 100 nM): No significant changes

Compound: CNC[C@H](O)c1ccc(O)c(O)c1 [epinephrine]
- MB activity previously reported (Wills et al. 2012) [2]: not stimulate MB
- Change in FCCP-OCR relative to vehicle control [1]: No significant changes

Compound: (±)-Epinephrine
- Average uncoupled OCR ratio ([1]; RPTC, 24 hr): 0.92 ± 0.03

Compound: (−)-Epinephrine
- Average uncoupled OCR ratio ([1]; RPTC, 24 hr): 1.03 ± 0.1

Like-named read-outs stand apart in the source and are kept apart here.
